Source: patent publication US11576981B2, “Acyl hydrazone linkers, methods and uses thereof” (Ontario Institute for Cancer Research (OICR), priority 2017, dated 2023)

System: SKOV3 ovarian cancer cell line
Experiment: Cytotoxicity against SKOV3 (CellTiter-Glo ATP viability)
Assay type: cell-based
Conditions: ATP content
Description: SKOV3 ovarian cells are incubated with the effectors for a period corresponding to 2 to 3 times their estimated doubling time and the amount of viable cells is determine by measuring ATP content in the wells. ATP has been widely accepted as a valid marker of viable cells. When cells lose membrane integrity, they lose the ability to synthesize ATP and endogenous ATPases rapidly deplete any remaining ATP from the cytoplasm. All ADCs are diluted in DPBS to 6× the highest concentration tested, followed by 10 3-fold serial dilutions in DPBS for a total of 11 concentration points. Each point is added to triplicate wells. DPBS is added in wells to measure the maximum growth. Cells are diluted at their appropriate seeding density (ranging from 150 to 1000 cells per well) in complete media supplemented with glutamine 2 mM, serum and antibiotic cocktail. […] Total ATP is measured using CellTiter-Glo reagent from Promega as recommended by the supplier. […] Signal output is measured on a luminescence plate reader (envision, Perkin Elmer) set at an integration time of 0.1 sec. […]
Each concentration point (S) is normalized to the negative control wells (NC) and expressed as % survival (NC−S/NC×100). Potency (IC50) and efficacy are calculated from a non-linear curve fit of the points versus log of the concentrations without constrain on the slope. Refined data are analysed using Prism software. […]

Trastuzumab-SMCC-DM1
IC50: 0.038 nM
